Data as given in PMC3646813.
Numbering of substitutions follows the chain as printed. Names may count otherwise.

B1: N-ethylmaleimide-sensitive factor (NSF), wild type, P18708 E216A (protein)
chain: MAGRSMQAARCPTDELSLSNCAVVSEKDYQSGQHVIVRTSPNHKYIFTLRTHPSVVPGSVAFSLPQRKWAGLSIGQEIEVALYSFDKAKQCIGTMTIEIDFLQKKNIDSNPYDTDKMAAEFIQQFNNQAFSVGQQLVFSFNDKLFGLLVKDIEAMDPSILKGEPASGKRQKIEVGLVVGNSQVAFEKAENSSLNLIGKAKTKENRQSIINPDWNFAKMGIGGLDKEFSDIFRRAFASRVFPPEIVEQMGCKHVKGILLYGPPGCGKTLLARQIGKMLNAREPKVVNGPEILNKYVGESEANIRKLFADAEEEQRRLGANSGLHIIIFDEIDAICKQRGSMAGSTGVHDTVVNQLLSKIDGVEQLNNILVIGMTNRPDLIDEALLRPGRLEVKMEIGLPDEKGRLQILHIHTARMRGHQLLSADVDIKELAVETKNFSGAELEGLVRAAQSTAMNRHIKASTKVEVDMEKAESLQVTRGDFLASLENDIKPAFGTNQEDYASYIMNGIIKWGDPVTRVLDDGELLVQQTKNSDRTPLVSVLLEGPPHSGKTALAAKIAEESNFPFIKICSPDKMIGFSETAKCQAMKKIFDDAYKSQLSCVVVDDIERLLDYVPIGPRFSNLVLQALLVLLKKAPPQGRKLLIIGTTSRKDVLQEMEMLNAFSTTIHVPNIATGEQLLEALELLGNFKDKERTTIAQQVKGKKVWIGIKKLLMLIEMSLQMDPEYRVRKFLALLREEGASPLDFD
B2: N-ethylmaleimide-sensitive factor (NSF), wild type, P18708 S207A (protein)
chain: B1 chain with S207A, A216E
B3: N-ethylmaleimide-sensitive factor (NSF), wild type, P18708 K217A (protein)
chain: B1 chain with A216E, K217A
B4: N-ethylmaleimide-sensitive factor (NSF), wild type, P18708 Q206A (protein)
chain: B1 chain with Q206A, A216E
B5: N-ethylmaleimide-sensitive factor (NSF), wild type, P18708 F215A (protein)
chain: B1 chain with F215A, A216E
B6: N-ethylmaleimide-sensitive factor (NSF), wild type, P18708 N210A (protein)
chain: B1 chain with N210A, A216E
B7: N-ethylmaleimide-sensitive factor (NSF), wild type, P18708 N214A (protein)
chain: B1 chain with N214A, A216E
B8: N-ethylmaleimide-sensitive factor (NSF), wild type, P18708 P211A (protein)
chain: B1 chain with P211A, A216E
B9: N-ethylmaleimide-sensitive factor (NSF), wild type, P18708 W213A (protein)
chain: B1 chain with W213A, A216E
B10: N-ethylmaleimide-sensitive factor (NSF), wild type, P18708 M218A (protein)
chain: B1 chain with A216E, M218A
B11: N-ethylmaleimide-sensitive factor (NSF), wild type, P18708 I208A (protein)
chain: B1 chain with I208A, A216E
B12: N-ethylmaleimide-sensitive factor (NSF), wild type, P18708 I209A (protein)
chain: B1 chain with I209A, A216E
B13: N-ethylmaleimide-sensitive factor (NSF), wild type, P18708 D212A (protein)
chain: B1 chain with D212A, A216E
B14: N-ethylmaleimide-sensitive factor (NSF), wild type, P18708 N204A (protein)
chain: B1 chain with N204A, A216E
B15: N-ethylmaleimide-sensitive factor (NSF), wild type, P18708 E203A (protein)
chain: B1 chain with E203A, A216E

biological target: MBP-SNARE/α-SNAP complex, P63045;P32851;P60881;P81125; test: pull-down with amylose magnetic beads, SDS-PAGE, densitometry (ImageJ); conditions: chain shown with the change, ADP-AlFx state, parent: est. 1.0, read off a plot

Binder | ratio to parent
B1 | 0
B2 | 1
B3 | 0.57
B4 | 0.75
B5 | 0.54
B6 | 0.65
B7 | 0.73
B8 | 0.34
B9 | 0.43
B10 | 0.68
B11 | 0.64
B12 | 0.54
B13 | 0.99
B14 | 0.93
B15 | 0.73
